Measurements as given in patent US20170340689A1, “TITRATED EXTRACTS OF CYNARA SCOLYMUS FOR USE IN THE TREATMENT OF MESOTHELIOMA” (ABOCA S.P.A SOCIETÀ AGRICOLA, priority 2014, published 2017).

Test system: MSTO211H and NCI-H2052
Assay: ATPlite cell vitality assay in co-treatment with pemetrexed, MPM lines
Format: cell-based, human
Conditions: 72 h, extract at non-cytotoxic dose 6 μg/ml
From the text: 4.1 Association of Extract of Cynara Spp. and Pemetrexed with ATPlite™ Assay

## Nc1nc2[nH]cc(CCc3ccc(C(=O)N[C@@H](CCC(=O)O)C(=O)O)cc3)c2c(=O)[nH]1 [PMTX, pemetrexed]
  cell vitality of MPM cell lines, pemetrexed alone or with extract: cytotoxic for the MPM cells
